Earlier results as cited in paper PMC5600712 (ACS chemical biology, 2017).

Biological target: HDAC6
Conditions: class IIb HDAC6-HC toxin complex

Substance: HC toxin
- Ki: 350 nM
